Source: article PMC10041529 (Journal of Medicinal Chemistry, 2023)

The chains behind the UniProt entries cited, without tags or fusion partners. Residues count along the entry.
UniProt P49841, 26-383: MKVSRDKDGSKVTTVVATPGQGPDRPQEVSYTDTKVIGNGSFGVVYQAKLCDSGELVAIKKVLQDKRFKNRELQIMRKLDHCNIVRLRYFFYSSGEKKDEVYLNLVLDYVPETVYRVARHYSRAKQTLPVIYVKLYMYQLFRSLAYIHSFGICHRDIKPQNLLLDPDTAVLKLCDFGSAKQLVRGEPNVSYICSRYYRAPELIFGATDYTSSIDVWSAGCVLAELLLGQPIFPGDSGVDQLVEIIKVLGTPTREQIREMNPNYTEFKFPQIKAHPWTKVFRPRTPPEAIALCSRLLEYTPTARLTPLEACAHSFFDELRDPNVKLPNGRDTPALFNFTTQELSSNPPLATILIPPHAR

Target: T1, GSK3β-mediated phosphorylation of Cyclin D1 (Homo sapiens, UniProt P49841)
T1 construct: we used only GSK3β (26–383) kinase domain constructs in our cellular studies; expressed in transfected cells; host or cells: HEK293T (pcDNA3.1, transient)
Assay: Cyclin D1 phosphorylation profile (Western Blot) in transfected HEK293T cells
Type: cell-based
Conditions: HA-Cyclin D1 + FLAG-GSK3β, 10 μM, 3 h

**Q.** For `O=C(O)c1ccc2c(c1)nc(Nc1cccc(Cl)c1)c1ccncc12` [CX-4945, 5-(3-Chlorophenylamino)benzo[c][2,6]naphthyridine-8-carboxylic Acid], which “effect on GSK3β-mediated Cyclin D1 phosphorylation” value is on record?
**A.** complete inhibition
